Legend:
Assay type in all cases: cell-based
GluN1/GluN2A NMDARs = GluN1/GluN2A NMDARs (Rattus norvegicus, UniProt P35439+Q00959); assay: Two-electrode voltage-clamp recordings, Xenopus laevis oocytes expressing GluN1/GluN2A; settings: saturating glutamate/glycine 100/30 µM; mean ± SEM
GluN1/GluN2D NMDARs [1] = target: T1, GluN1/GluN2D NMDARs (Rattus norvegicus, UniProt P35439+Q62645); assay: Two-electrode voltage-clamp recordings, Xenopus laevis oocytes expressing GluN1/GluN2D; settings: for IC50: read-out: IC50 (µM) [conf. int.], glutamate/glycine 100/30 µM, no second modulator (+EU1794-27 0 µM); for Maximal Degree of Modulation (% of control): mean ± SEM
GluN1/GluN2C NMDARs = GluN1/GluN2C NMDARs (Rattus norvegicus, UniProt P35439+Q00961); assay: Two-electrode voltage-clamp recordings, Xenopus laevis oocytes expressing GluN1/GluN2C; settings: saturating glutamate/glycine 100/30 µM; mean ± SEM
GluN1/GluN2D NMDARs [2] = target: T1, GluN1/GluN2D NMDARs; assay: Whole cell patch-clamp recordings, HEK293 cells expressing GluN1/GluN2D; settings: 10 µM; 100/30 µM glutamate/glycine
GluN1/GluN2B NMDARs = GluN1/GluN2B NMDARs (Rattus norvegicus, UniProt P35439+Q00960); assay: Two-electrode voltage-clamp recordings, Xenopus laevis oocytes expressing GluN1/GluN2B; settings: saturating glutamate/glycine 100/30 µM; mean ± SEM
[3] = saturating glutamate/glycine 100/30 µM

Sequences of proteins named here, by UniProt entry; tags and fusion partners are left off. Residues count along the entry.
UniProt Q00959, 23-1464 limits assumed: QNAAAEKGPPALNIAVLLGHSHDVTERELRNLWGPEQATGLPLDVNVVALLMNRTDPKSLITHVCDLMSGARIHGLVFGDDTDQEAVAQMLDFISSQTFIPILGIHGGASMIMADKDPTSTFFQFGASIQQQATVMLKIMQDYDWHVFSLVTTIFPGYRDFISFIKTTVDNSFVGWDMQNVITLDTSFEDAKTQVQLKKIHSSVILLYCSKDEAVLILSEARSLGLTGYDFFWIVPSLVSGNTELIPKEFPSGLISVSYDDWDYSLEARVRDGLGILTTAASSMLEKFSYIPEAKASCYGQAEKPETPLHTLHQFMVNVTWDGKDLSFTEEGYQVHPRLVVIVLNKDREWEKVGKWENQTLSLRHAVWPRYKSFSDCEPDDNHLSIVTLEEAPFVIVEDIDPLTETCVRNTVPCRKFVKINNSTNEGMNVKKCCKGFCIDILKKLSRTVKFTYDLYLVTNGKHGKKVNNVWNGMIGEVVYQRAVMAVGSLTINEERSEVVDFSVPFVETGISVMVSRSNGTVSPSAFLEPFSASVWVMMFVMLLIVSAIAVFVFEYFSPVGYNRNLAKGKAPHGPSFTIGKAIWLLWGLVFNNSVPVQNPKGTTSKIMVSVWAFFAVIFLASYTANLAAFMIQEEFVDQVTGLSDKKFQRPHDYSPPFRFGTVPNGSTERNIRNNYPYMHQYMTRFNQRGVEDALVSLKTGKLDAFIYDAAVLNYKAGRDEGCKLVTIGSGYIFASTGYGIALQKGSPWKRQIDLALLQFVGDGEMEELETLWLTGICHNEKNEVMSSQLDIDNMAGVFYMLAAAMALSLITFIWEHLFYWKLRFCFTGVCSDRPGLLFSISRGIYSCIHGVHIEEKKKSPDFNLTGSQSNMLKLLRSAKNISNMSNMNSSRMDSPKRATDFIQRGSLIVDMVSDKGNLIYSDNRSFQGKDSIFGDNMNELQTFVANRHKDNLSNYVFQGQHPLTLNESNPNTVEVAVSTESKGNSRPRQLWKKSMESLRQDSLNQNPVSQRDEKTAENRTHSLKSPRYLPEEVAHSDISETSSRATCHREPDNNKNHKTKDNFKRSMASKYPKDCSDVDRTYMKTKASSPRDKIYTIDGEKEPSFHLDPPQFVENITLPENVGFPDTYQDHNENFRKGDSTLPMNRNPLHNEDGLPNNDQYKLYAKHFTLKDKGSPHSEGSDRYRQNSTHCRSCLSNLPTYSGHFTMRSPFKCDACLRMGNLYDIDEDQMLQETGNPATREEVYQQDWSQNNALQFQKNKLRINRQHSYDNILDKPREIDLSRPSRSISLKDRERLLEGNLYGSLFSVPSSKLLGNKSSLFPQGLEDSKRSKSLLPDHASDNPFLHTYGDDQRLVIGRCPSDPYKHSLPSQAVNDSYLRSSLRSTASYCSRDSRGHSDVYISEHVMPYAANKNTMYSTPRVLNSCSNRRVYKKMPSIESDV
UniProt Q62645, 28-1323 limits assumed: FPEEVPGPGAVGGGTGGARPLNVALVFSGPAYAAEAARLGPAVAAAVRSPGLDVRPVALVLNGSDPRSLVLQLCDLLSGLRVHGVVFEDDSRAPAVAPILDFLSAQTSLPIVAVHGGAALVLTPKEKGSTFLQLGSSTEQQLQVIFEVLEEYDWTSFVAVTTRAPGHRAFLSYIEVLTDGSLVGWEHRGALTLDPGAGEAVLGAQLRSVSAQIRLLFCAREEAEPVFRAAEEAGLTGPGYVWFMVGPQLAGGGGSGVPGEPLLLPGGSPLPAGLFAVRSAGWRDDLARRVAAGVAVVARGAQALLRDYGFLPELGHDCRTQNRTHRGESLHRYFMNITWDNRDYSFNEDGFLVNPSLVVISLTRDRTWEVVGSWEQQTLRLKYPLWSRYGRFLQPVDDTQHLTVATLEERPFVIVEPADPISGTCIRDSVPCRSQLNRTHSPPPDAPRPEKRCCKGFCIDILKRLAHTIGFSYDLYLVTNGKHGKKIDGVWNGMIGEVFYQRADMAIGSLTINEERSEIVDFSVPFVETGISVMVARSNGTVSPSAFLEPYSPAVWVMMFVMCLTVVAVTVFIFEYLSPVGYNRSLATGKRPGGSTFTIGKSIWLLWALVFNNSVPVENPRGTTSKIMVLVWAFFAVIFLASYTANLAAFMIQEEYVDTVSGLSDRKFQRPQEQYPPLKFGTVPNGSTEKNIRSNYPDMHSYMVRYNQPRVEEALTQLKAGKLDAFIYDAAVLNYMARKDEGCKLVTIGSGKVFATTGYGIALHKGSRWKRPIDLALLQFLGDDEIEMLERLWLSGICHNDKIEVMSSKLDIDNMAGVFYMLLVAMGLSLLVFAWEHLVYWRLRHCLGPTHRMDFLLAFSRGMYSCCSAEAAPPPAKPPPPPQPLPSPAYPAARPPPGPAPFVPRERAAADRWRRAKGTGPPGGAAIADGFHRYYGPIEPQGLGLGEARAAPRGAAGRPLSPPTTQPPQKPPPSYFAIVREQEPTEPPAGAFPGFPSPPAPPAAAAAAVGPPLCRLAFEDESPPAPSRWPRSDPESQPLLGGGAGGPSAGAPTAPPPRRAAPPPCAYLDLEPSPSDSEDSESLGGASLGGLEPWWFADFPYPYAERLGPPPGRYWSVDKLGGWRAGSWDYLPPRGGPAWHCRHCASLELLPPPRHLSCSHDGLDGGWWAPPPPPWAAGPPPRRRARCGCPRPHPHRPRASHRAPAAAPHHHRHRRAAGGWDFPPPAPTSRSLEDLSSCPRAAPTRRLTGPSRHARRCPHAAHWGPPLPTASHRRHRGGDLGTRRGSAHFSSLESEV
UniProt Q00961, 20-1237 limits assumed: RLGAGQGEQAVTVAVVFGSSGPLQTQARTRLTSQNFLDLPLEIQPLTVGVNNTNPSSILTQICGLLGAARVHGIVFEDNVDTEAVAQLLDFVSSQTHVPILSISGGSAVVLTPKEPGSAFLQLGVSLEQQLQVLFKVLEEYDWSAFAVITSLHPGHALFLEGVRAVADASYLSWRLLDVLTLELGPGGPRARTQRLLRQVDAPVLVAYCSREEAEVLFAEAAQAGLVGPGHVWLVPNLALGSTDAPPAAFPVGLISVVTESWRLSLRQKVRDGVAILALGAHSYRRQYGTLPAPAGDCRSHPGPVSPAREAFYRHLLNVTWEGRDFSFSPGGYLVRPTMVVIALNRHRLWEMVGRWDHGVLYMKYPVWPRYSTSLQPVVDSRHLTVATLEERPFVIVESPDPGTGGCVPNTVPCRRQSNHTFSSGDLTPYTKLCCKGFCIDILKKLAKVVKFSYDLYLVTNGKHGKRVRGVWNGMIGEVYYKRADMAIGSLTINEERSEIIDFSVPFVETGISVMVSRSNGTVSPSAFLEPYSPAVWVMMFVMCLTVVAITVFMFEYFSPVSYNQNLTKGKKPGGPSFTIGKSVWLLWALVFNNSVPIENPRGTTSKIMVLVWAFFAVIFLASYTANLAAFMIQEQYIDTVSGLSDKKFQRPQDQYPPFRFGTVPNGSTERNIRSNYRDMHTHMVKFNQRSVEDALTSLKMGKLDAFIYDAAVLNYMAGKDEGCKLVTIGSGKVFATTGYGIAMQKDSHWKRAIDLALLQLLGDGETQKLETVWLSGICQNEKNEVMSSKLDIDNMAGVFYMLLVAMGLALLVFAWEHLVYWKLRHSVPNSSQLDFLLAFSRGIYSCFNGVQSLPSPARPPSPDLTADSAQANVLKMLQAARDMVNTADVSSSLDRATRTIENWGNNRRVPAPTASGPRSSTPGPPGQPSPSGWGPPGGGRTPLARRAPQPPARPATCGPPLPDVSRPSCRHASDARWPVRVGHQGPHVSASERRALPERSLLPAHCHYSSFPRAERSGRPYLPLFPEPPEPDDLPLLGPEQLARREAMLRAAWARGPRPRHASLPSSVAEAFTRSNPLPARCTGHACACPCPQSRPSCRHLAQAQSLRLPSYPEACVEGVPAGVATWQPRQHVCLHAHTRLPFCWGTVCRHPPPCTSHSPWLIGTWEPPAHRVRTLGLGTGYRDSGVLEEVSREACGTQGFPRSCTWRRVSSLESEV
UniProt Q00960, 27-1482 limits assumed: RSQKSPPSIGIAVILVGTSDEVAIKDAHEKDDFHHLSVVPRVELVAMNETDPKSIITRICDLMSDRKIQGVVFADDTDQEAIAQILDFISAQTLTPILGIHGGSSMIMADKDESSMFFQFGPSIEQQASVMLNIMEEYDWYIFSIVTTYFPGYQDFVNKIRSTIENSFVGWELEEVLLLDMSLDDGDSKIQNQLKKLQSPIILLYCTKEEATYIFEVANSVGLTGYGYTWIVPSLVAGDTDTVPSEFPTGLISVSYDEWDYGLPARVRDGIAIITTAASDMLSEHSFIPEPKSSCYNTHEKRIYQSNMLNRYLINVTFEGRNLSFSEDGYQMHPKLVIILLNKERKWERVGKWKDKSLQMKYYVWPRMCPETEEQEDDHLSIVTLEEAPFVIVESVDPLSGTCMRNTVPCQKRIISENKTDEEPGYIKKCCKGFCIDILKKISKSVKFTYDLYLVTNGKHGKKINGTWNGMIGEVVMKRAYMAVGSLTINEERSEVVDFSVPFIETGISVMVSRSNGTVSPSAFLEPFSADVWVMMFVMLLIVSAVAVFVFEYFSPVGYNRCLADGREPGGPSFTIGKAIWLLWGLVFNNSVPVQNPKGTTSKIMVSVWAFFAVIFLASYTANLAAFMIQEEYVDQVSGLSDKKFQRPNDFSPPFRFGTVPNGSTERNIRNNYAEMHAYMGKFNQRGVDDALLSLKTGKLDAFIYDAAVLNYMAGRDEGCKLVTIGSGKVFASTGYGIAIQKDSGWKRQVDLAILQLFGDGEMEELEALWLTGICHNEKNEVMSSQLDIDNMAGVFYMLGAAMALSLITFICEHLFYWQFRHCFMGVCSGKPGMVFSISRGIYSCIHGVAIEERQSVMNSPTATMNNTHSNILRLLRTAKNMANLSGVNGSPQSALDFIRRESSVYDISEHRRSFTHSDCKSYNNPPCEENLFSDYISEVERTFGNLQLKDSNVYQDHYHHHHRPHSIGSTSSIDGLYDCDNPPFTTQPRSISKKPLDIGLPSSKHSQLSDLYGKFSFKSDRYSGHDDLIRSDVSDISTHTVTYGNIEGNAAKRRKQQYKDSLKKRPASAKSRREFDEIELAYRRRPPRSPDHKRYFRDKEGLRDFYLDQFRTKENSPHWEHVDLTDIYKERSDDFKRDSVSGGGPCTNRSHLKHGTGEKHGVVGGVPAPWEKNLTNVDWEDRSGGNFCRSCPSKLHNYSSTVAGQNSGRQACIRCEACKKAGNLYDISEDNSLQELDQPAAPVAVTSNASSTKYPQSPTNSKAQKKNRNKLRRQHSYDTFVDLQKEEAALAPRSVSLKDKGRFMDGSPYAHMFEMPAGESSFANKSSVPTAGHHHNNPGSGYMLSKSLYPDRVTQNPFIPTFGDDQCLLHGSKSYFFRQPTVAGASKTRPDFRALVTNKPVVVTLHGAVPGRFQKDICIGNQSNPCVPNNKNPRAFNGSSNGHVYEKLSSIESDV

SMILES | Maximal Degree of Modulation (% of control) (GluN1/GluN2A NMDARs) | IC50 (GluN1/GluN2D NMDARs [1]) | Maximal Degree of Modulation (% of control) (GluN1/GluN2D NMDARs [1]; [3]) | Maximal Degree of Modulation (% of control) (GluN1/GluN2C NMDARs) | effect on steady-state GluN1/GluN2D responses in HEK cells (GluN1/GluN2D NMDARs [2]) | Maximal Degree of Modulation (% of control) (GluN1/GluN2B NMDARs) | EC50 (GluN1/GluN2D NMDARs [1]; read-out: EC50 (µM) [conf. int.], saturating glutamate/glycine 100/30 µM, mean [95% CI])
CCOC(=O)c1c(NC(=O)CC2SC(=N)NC2=O)sc2c1CCCC2 (single isomer, unassigned) [(+)-EU1794-4] | 41 ± 6 % of control | 3.5 µM | 47 ± 6 % of control | 50 ± 4 % of control |  |  | 
CC(C)(C)OC(=O)c1c(NC(=O)CC2SC(=N)NC2=O)sc2c1CCCC2 (single isomer, unassigned) [(+)-EU1794-27] |  |  | 130 ± 4.7 % of control | 160 ± 6.2 % of control | slight inhibitory effect |  | 
CCOC(=O)c1c(NC(=O)CC2SC(=N)NC2=O)sc2c1CCCC2 (single isomer, unassigned) [(-)-EU1794-4] | 17 ± 10 % of control | 0.46 µM | 54 ± 3 % of control | 47 ± 1 % of control |  |  | 
CC(C)(C)OC(=O)c1c(NC(=O)CC2SC(=N)NC2=O)sc2c1CCCC2 (single isomer, unassigned) [(-)-EU1794-27] | 67 ± 5 % of control |  | 340 ± 21 % of control | 260 ± 24 % of control | potentiated responses | 170 ± 10 % of control | 8.2 µM
